Values of other authors as cited in PMC12120261, “Responsiveness of different MET tumour alterations to type I and type II MET inhibitors” (Clinical and Translational Medicine, 2025).

Tested on: MET G1163R
Set-up: method as in PMID 31279006

CN1CCC(COc2cnc(-c3cccc(Cn4nc(-c5cccc(C#N)c5)ccc4=O)c3)nc2)CC1 [tepotinib]
sensitivity of the solvent front G1163R mutation: remains sensitive
